{
  "source": "patent USRE30451E",
  "about": "“Novel process for producing antibiotics bleomycin” (priority 1969, dated 1980)",
  "test_system": "Mycobacterium tuberculosis 607",
  "conditions": "Examples 1-4, test microorganism not printed at the place",
  "note": "Like-named read-outs stand apart in the source and are kept apart here.",
  "data": [
    {"smiles": "Cc1c(N)nc(C(CC(N)=O)NCC(N)C(N)=O)nc1C(=O)NC(C(=O)NC(C)C(O)C(C)C(=O)NC(C(=O)NCCc1nc(-c2nc(C(=O)NCCCN)cs2)cs1)C(C)O)C(OC1OC(CO)C(O)C(O)C1OC1OC(CO)C(O)C(OC(N)=O)C1O)c1cnc[nH]1.Cl", "note": "(stereo not shown) [Compound 5, 3-aminopropylamino-bleomycin]", "values": [
      {"measurement": "potency of isolated product (text of the examples)", "setting": "listed as 3-aminopropylamino-bleomycin hydrochloride", "result": "1,934 mcg/mg"}
    ]},
    {"smiles": "Cc1c(N)nc(C(CC(N)=O)NCC(N)C(N)=O)nc1C(=O)NC(C(=O)NC(C)C(O)C(C)C(=O)NC(C(=O)NCCc1nc(-c2nc(C(=O)NCCCN)cs2)cs1)C(C)O)C(OC1OC(CO)C(O)C(O)C1OC1OC(CO)C(O)C(OC(N)=O)C1O)c1cnc[nH]1.Cl", "note": "(stereo not shown) [copper-free 3-aminopropylamino-bleomycin hydrochloride]", "values": [
      {"measurement": "potency of isolated product (text of the examples)", "setting": "hydrochloride", "result": "1,850 mcg/mg"},
      {"measurement": "potency of isolated product (text of the examples)", "setting": "listed as copper-free 3-aminopropylaminobleomycin hydrochloride, hydrochloride", "result": "1,850 mcg/mg"}
    ]},
    {"smiles": "Cc1c(N)nc(C(CC(N)=O)NCC(N)C(N)=O)nc1C(=O)NC(C(=O)NC(C)C(O)C(C)C(=O)NC(C(=O)NCCc1nc(-c2nc(C(=O)NCCCN)cs2)cs1)C(C)O)C(OC1OC(CO)C(O)C(O)C1OC1OC(CO)C(O)C(OC(N)=O)C1O)c1cnc[nH]1.O=S(=O)(O)O", "note": "(stereo not shown) [copper-free 3-aminopropylamino-bleomycin sulfate]", "values": [
      {"measurement": "potency of isolated product (text of the examples)", "result": "1,850 mcg/mg"}
    ]}
  ]
}
